Laboratory results published in PubChem BioAssay (NCI).
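Grown in 96-well plates, cells were treated for 48 hours with each compound at five concentrations. Insufficient inhibition: endpoint recorded as highest concentration tested. TGI marks complete inhibition of growth.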

Assays:
Assay in all cases: DTP human tumour cell line panel, 48 h
T-47D breast = system: T-47D breast
TK-10 renal = system: TK-10 renal
KM12 colon = system: KM12 colon
NCI/ADR-RES ovarian = system: NCI/ADR-RES ovarian
OVCAR-8 ovarian = system: OVCAR-8 ovarian
LOX IMVI melanoma = system: LOX IMVI melanoma
HOP-62 NSCLC = system: HOP-62 NSCLC
UACC-62 melanoma = system: UACC-62 melanoma
UO-31 renal = system: UO-31 renal
A498 renal = system: A498 renal
ACHN renal = system: ACHN renal
U251 CNS = system: U251 CNS
786-0 renal = system: 786-0 renal
CCRF-CEM leukemia = system: CCRF-CEM leukemia
SK-OV-3 ovarian = system: SK-OV-3 ovarian
SK-MEL-28 melanoma = system: SK-MEL-28 melanoma
COLO 205 colon = system: COLO 205 colon
OVCAR-5 ovarian = system: OVCAR-5 ovarian
NCI-H23 lung = system: NCI-H23 lung
SF-295 CNS = system: SF-295 CNS
SF-268 CNS = system: SF-268 CNS
NCI-H226 lung = system: NCI-H226 lung
NCI-H522 lung = system: NCI-H522 lung
HL-60(TB) leukemia = system: HL-60(TB) leukemia
NCI-H322M lung = system: NCI-H322M lung
HS 578T breast = system: HS 578T breast
MOLT-4 leukemia = system: MOLT-4 leukemia
HCT-116 colon = system: HCT-116 colon
RPMI-8226 leukemia = system: RPMI-8226 leukemia
RXF 393 renal = system: RXF 393 renal
OVCAR-4 ovarian = system: OVCAR-4 ovarian
SR leukemia = system: SR leukemia
MDA-MB-435 = system: MDA-MB-435
BT-549 breast = system: BT-549 breast
MALME-3M melanoma = system: MALME-3M melanoma
MCF7 breast = system: MCF7 breast
SNB-75 CNS = system: SNB-75 CNS
MDA-MB-231 breast = system: MDA-MB-231 breast
NCI-H460 lung = system: NCI-H460 lung
HT29 colon = system: HT29 colon
SN12C renal = system: SN12C renal
OVCAR-3 ovarian = system: OVCAR-3 ovarian
IGROV1 ovarian = system: IGROV1 ovarian
HCT-15 colon = system: HCT-15 colon
DU-145 prostate = system: DU-145 prostate
PC-3 prostate = system: PC-3 prostate
SW-620 colon = system: SW-620 colon
HOP-92 NSCLC = system: HOP-92 NSCLC
HCC-2998 colon = system: HCC-2998 colon
M14 melanoma = system: M14 melanoma
SNB-19 CNS = system: SNB-19 CNS
K-562 leukemia = system: K-562 leukemia

Measured: TGI

CCOP1(=O)N=C(/N=C(\N)N(CC)CC)N(C)C1(C)C (configuration not stated)
> 100 µM: all assays above
